## scFv variants of Ab-14 (light chain) against a SARS-CoV-2 spike peptide

From the AlphaSeq antibody data of Li et al. 2023 (doi:10.1038/s41467-023-39022-2), copy in the FLAb collection.

Binding partner: SARS-CoV-2 spike HR2 peptide, sequence PDVDLGDISGINAS.

Ab-14 is the parent antibody, in scFv form: VH, then the linker GGGGSGGGGSGGGGS, then VL. The heavy chain is unchanged in all variants.
VH: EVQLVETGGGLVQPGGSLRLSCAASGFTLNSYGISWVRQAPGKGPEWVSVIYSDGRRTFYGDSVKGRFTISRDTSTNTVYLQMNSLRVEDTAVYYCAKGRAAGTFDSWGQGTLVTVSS
VL: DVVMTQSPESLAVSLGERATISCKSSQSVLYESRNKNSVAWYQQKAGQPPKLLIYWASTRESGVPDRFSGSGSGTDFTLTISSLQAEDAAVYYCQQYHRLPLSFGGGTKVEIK

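The parent was found by panning a naive human phage display library on the peptide. The variants were designed computationally from a first round of random CDR variants and then made and measured. Their group label is 14L_Ctrl (Ctrl: baseline library sampled from a position-specific scoring matrix, with some repeated check sequences). AlphaSeq pools MATa yeast showing the antibodies with MATalpha yeast showing the peptide. After mating in shaken culture at 30 °C for 16 h, diploids were selected and their barcode pairs sequenced. A regression on co-assayed BCL2-family reference pairs converts the normalised counts of each replicate to an apparent Kd. There are six technical replicates.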

Changes read parent residue, position, new residue, counted from the first residue of the VL shown.
Affinities are written as log10 Kd with Kd in nM; a lower number is a better binder.
A mean of the replicates is given; it leaves out those without a signal.
"nd" marks a missing value. The strain was present, yet no cells mated with the target were sequenced in that replicate, which points to weak or no binding.
The authors' rule: three or more of the six replicates give a measured affinity, fewer mean a poor binder.
As a blank, each scFv also met three strains without target: over all light chain designs, 4% of these pairings were detected, typically at 2.64 and seldom below 1.59. Also given: how often the same scFv was detected with the empty control strains.
The range of this assay differs from that of the first round, and the authors advise against merging the two.
Of ten entries with the parent sequence, four were seen in most replicates (averages 0.34 to 2.37), three in one and three in none, so single entries are noisy.

With E32Y+Q96V+L100N the result was nd, nd, nd, nd, nd, nd (controls 0 of 18).
With E61N+R99K the result was nd, nd, 2.13, 3.80, 3.00, 2.27 (mean 2.80; controls 2 of 18).
With S26Y+Q27S+S33N+N35I the result was nd, 4.40, nd, nd, nd, nd (controls 1 of 18).
With S25M+R34I+S38H+W56E+E61C the result was 0.13, 0.06, -0.01, -0.17, 0.02, 0.14 (mean 0.03; controls 3 of 18).
With V29D+Y31M+W56M+A57G the result was 0.30, 0.45, 0.85, 1.06, 0.45, 0.59 (mean 0.62; controls 0 of 18).
With S25I+V29C+N35V+W56D+H98V+L102F the result was 0.16, 0.07, -0.09, -0.14, -0.13, 0.08 (mean -0.01; controls 2 of 18).
With S26A+L100P the result was nd, nd, nd, nd, nd, nd (controls 0 of 18).
With S26R+L30F+Q95K the result was nd, nd, nd, nd, nd, nd (controls 0 of 18).
With S33T+H98Y the result was nd, nd, nd, 1.89, 4.18, 3.03 (mean 3.03; controls 1 of 18).
With N35G+W56S the result was 1.74, 1.08, 1.19, 1.23, 1.16, 0.88 (mean 1.21; controls 0 of 18).
With S26Q+R34V+S62I+H98F the result was 2.16, 1.61, 1.77, 1.70, 1.72, 1.67 (mean 1.77; controls 2 of 18).
With S25L+S28E+W56R the result was -0.10, 0.15, 0.23, -0.24, -0.08, 0.13 (mean 0.01; controls 0 of 18).
With Y31A+W56G the result was 0.61, 0.57, 0.25, 0.42, 0.33, 0.59 (mean 0.46; controls 0 of 18).
With Q27M+S28L+L30E+S33D+K36C+A57G+T59E+S62F+L100M the result was nd, nd, nd, nd, 1.84, nd (controls 1 of 18).
With S38H+Y97H the result was 2.71, 2.41, 1.98, 2.72, 1.72, 3.08 (mean 2.44; controls 1 of 18).
With S25T+S26D+S33Q+R34Q the result was 1.45, 1.71, 1.33, 1.05, 1.01, 1.83 (mean 1.40; controls 0 of 18).
With Q27T+W56G+T59V+E61S the result was 0.55, 0.88, 0.46, 0.53, 0.48, 0.70 (mean 0.60; controls 0 of 18).
With S26Q+L30M+K36N+W56R the result was 1.12, 1.07, 1.06, 0.98, 1.26, 1.01 (mean 1.08; controls 2 of 18).
With R34N+W56N+E61I+H98E the result was 0.66, 0.68, 0.54, 0.55, 0.29, 0.76 (mean 0.58; controls 1 of 18).
With Y31M+R34S+R99H+S103E the result was nd, nd, nd, 2.05, 2.63, 1.83 (mean 2.17; controls 0 of 18).
With E32D+K36V the result was 1.39, 1.07, 1.28, 1.36, 1.10, 1.67 (mean 1.31; controls 3 of 18).
With S26E+Y31T+W56S+H98V the result was 0.29, 0.18, 0.27, 0.04, -0.07, 0.11 (mean 0.14; controls 0 of 18).
With L30T+R34A the result was nd, nd, nd, nd, nd, nd (controls 0 of 18).
With V29L+T59D the result was 2.24, 2.57, 1.77, 2.00, 2.40, 1.52 (mean 2.08; controls 0 of 18).
With Q27L+W56D the result was -0.23, -0.53, -0.57, -0.55, -0.65, 0.14 (mean -0.40; controls 0 of 18).
With L30M+W56A+S62T the result was 1.21, nd, 0.64, nd, nd, nd (mean 0.93; controls 0 of 18).
With E32D+W56T+Q95F the result was nd, nd, nd, nd, 2.67, nd (controls 0 of 18).
With V29T+R34S+K36V+W56R+Q96M the result was nd, 1.24, nd, 1.94, 2.04, 1.09 (mean 1.58; controls 0 of 18).
With Y31H+K36D+W56G the result was 0.36, 0.26, 0.17, 0.05, 0.11, 0.33 (mean 0.21; controls 2 of 18).
With L30H+Y31E+W56N the result was 0.74, 0.61, 0.49, 0.97, 0.57, 0.83 (mean 0.70; controls 2 of 18).
With V29W+W56D+T59V+Y97P the result was nd, nd, nd, nd, nd, nd (controls 0 of 18).
With V29S+W56S+P101H+S103E the result was 0.55, 0.88, 0.53, 0.32, 0.30, 0.22 (mean 0.47; controls 0 of 18).
With K24S+Q27R+R34T+V39I+H98L the result was 1.20, nd, nd, nd, 2.10, 1.28 (mean 1.53; controls 0 of 18).
With S33M+R34P+S58T the result was nd, 1.83, 2.48, 1.71, 2.36, 2.77 (mean 2.23; controls 0 of 18).

Extract of 3 entries:

R34N+W56N+E61I+H98E: 0.66, 0.68, 0.54, 0.55, 0.29, 0.76 (mean 0.58; controls 1 of 18).
V29W+W56D+T59V+Y97P: nd, nd, nd, nd, nd, nd (controls 0 of 18).
L30H+Y31E+W56N: 0.74, 0.61, 0.49, 0.97, 0.57, 0.83 (mean 0.70; controls 2 of 18).